Assay results: patent publication US20250090520A1, “DERIVATIVES OF TURBINMICIN AS ANTIFUNGAL AGENTS” (Wisconsin Alumni Research Foundation, priority 2021, published 2025)

Assays:
Test in all cases: In vitro MIC susceptibility testing, broth microdilution
C. glabrata 4720 = type: cell-based, Candida glabrata; settings: Nakaseomyces glabratus, 4720, 24 h, read-out: MIC C. glabrata 4720
Procedure: (§1) In vitro MIC susceptibility testing. […] Six untreated media controls were included on each plate. The plates were incubated at 33° C. for 24 hours. The MICs were determined as the lowest concentration that inhibited visible growth. The MICs were read at 24.

C. auris B 11211 = type: cell-based, Candida auris; settings: Candidozyma auris, B11211, 24 h, read-out: MIC C. auris B11211
Procedure: In vitro MIC susceptibility testing. Turbinmicin analogs of the present disclosure were tested for antifungal activity against four Candida isolates, C. albicans K-1, C. tropicalis 98-234, C. auris B 11211, and C. glabrata 4720, and MICs were determined using a broth microdilution method for yeasts. A turbinmicin analog was dissolved in DMSO, serially diluted to 10 concentrations (0.125-64 μg/mL), and tested in a 96-well plate in RPMI medium. […] Six untreated media controls were included on each plate. The plates were incubated at 33° C. for 24 hours. The MICs were determined as the lowest concentration that inhibited visible growth. The MICs were read at 24.

C. albicans K-1 = type: cell-based; settings: Candida albicans, K1, 24 h, read-out: MIC C. albicans K-1
Procedure: as §1

C. tropicalis 98-234 = type: cell-based; settings: Candida tropicalis, 98234, 24 h, read-out: MIC C. tropicalis 98-234
Procedure: as §1

Measured: MIC

C/C=C/C=C/C=C/C(=O)O[C@@H]1C=CC[C@H]2/C(=N/Cc3ccncc3)c3c(O)c4c5c(c3O[C@H]12)OCO[C@@H]5C[C@@H]1C(=O)c2cc(C)[nH]c(=O)c2C(=O)[C@]41O [Compound T14]
> 4 µg/mL: all assays above
